Measured values reported in patent US20150272951A1, “COMPOUNDS FOR THE TREATMENT OF LYSOSOMAL STORAGE DISEASES” (The Hospital for Sick Children, priority 2010, published 2015).

Chains of the proteins cited; added tags and fusions are not shown. Residues count along the entry.
UniProt P06865, 89-529: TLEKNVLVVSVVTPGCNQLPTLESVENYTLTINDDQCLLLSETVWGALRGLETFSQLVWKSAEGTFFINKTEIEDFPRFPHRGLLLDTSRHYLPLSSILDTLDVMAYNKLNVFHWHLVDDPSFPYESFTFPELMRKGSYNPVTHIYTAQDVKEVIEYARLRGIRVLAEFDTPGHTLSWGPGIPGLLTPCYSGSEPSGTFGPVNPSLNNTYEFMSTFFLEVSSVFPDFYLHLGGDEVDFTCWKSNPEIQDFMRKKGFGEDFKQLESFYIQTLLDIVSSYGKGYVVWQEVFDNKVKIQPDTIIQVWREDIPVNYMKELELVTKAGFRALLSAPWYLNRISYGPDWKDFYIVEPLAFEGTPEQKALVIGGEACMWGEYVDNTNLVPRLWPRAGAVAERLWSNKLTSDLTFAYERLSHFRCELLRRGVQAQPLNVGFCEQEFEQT
UniProt P07686, 315-556 limits assumed: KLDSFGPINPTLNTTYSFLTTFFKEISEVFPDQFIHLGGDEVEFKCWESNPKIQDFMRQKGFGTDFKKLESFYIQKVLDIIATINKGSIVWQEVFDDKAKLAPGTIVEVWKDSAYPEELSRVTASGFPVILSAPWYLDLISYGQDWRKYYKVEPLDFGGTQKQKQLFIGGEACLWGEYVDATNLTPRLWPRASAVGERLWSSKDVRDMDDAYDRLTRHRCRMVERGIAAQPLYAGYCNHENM
UniProt P07686, 122-311 limits assumed: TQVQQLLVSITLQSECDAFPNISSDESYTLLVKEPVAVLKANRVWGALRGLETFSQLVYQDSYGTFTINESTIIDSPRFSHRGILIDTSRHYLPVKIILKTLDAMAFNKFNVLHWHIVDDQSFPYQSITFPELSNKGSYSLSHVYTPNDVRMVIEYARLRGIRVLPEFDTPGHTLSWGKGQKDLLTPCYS

Target: Hex A (Homo sapiens, UniProt P06865+P07686)
Test: Hex A inhibition (IC50 from dose response curves of Hex A residual activity);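 note: remaining Hex A enzyme activity recorded across rising inhibitor doses, with dose response curves run at pH 6.5 and again at pH 4.5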
Conditions: read-out: IC50 HexA pH 4.5; purified HexA, pH 4.5, 1.6 mM 4-methylumbelliferone-b-N-Acetylglucosamine substrate

Which IC50 does the source give for `CCc1nc(N)nc(N)c1-c1ccccc1` [ksh3-10] here?
The IC50 was 30 µM.
